Measured affinities in a library of Ab-14 light chain variants

Values reported by Li et al. 2023, doi:10.1038/s41467-023-39022-2 (FLAb copy).

Binding partner: SARS-CoV-2 spike HR2 peptide, sequence PDVDLGDISGINAS.

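The parent was found by panning a naive human phage display library on the peptide. Designed CDR sequences, proposed from the first random library and measured here. Their group label is 14L_En_Gibbs (En: ensemble of fine-tuned language models; Gibbs: Gibbs sampling). AlphaSeq pools MATa yeast showing the antibodies with MATalpha yeast showing the peptide. Pairs that bind mate more often; barcode pairs of the diploids are counted by sequencing. The ratio of observed to expected reads was calibrated, replicate by replicate, on BCL2-family standards whose Kd was known from biolayer interferometry. Each pool was mated in six replicate cultures.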

Each scFv is VH, a 15-residue (Gly4Ser)3 linker, VL, as in the parent Ab-14, and differs from it in the CDRs of the light chain only.
VH: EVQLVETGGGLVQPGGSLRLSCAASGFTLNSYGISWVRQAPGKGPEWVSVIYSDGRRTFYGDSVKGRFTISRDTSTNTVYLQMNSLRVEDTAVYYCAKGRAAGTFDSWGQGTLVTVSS
VL: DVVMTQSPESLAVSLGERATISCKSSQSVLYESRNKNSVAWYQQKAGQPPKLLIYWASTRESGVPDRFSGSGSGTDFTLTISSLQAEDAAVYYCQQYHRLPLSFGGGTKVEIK

Variants are written as CDR1, CDR2 and CDR3 of the light chain (limits as in the source). Parent: KSSQSVLYESRNKNSVA, WASTRES, QQYHRLPLS. Scale: log10 of Kd in nM, estimated from mating counts; low values are strong binders. The mean shown is taken over the replicates in which the pair was detected. An entry "nd" has no value in the source: the pair was not observed among the diploids in that replicate. This suggests poor binding but is not conclusive. Of ten entries with the parent sequence, four were seen in most replicates (averages 0.34 to 2.37), three in one and three in none, so single entries are noisy. The authors' rule: three or more of the six replicates give a measured affinity, fewer mean a poor binder. A sequence measured in both rounds can read differently, since the two assays cover different ranges. Three control strains display no target. For all light chain designs, 4% of the pairings with them gave a signal, with a median of 2.64 and one signal in twenty below 1.59, so weak values seen in few replicates may be background. Also given: how often the same scFv was detected with the empty control strains, with their mean in brackets.

{"CDR-L1": "QMTLSFGMWLNAAQSIA", "CDR-L2": "DKSSVME", "CDR-L3": "QQYAWLPLS", "log10 Kd, replicates": "1.54 1.14 1.12 0.55 1.08 0.96", "mean log10 Kd (nM)": "1.06", "control signals": "0/18"}
{"CDR-L1": "KLDMNELGQSQNSSHVA", "CDR-L2": "GSAQKCS", "CDR-L3": "QQYSRLPLS", "log10 Kd, replicates": "1.83 1.47 1.39 1.68 1.83 2.14", "mean log10 Kd (nM)": "1.72", "control signals": "3/18 (2.90)"}
{"CDR-L1": "KLYSAKQGDIAQMQNVA", "CDR-L2": "AADVLTQ", "CDR-L3": "QQYNKLPLS", "log10 Kd, replicates": "0.48 0.57 0.39 0.37 0.22 0.57", "mean log10 Kd (nM)": "0.43", "control signals": "3/18 (2.90)"}
{"CDR-L1": "NMQLQVRNGENNKYNIA", "CDR-L2": "AEMKRVY", "CDR-L3": "QQYQRLPLS", "log10 Kd, replicates": "nd nd nd nd nd nd", "mean log10 Kd (nM)": "nd", "control signals": "0/18"}
{"CDR-L1": "HMQNEWQGGSRAENNVA", "CDR-L2": "EGTVVCD", "CDR-L3": "QQYATLPLQ", "log10 Kd, replicates": "0.36 1.04 0.44 1.70 0.53 nd", "mean log10 Kd (nM)": "0.81", "control signals": "0/18"}
{"CDR-L1": "KIELDLTRYNAGYAAIA", "CDR-L2": "HETMKAQ", "CDR-L3": "QQYSRLPLI", "log10 Kd, replicates": "1.13 1.15 1.16 1.11 1.25 1.17", "mean log10 Kd (nM)": "1.16", "control signals": "1/18 (2.44)"}
{"CDR-L1": "SLNKHAWDFNQTWNSVA", "CDR-L2": "DHSMRVT", "CDR-L3": "QDYIRLPLT", "log10 Kd, replicates": "nd nd nd nd nd nd", "mean log10 Kd (nM)": "nd", "control signals": "1/18 (1.85)"}
{"CDR-L1": "SMSNLQILPDVWKNSIA", "CDR-L2": "DAEHVEY", "CDR-L3": "QQYSRLPLT", "log10 Kd, replicates": "0.29 0.42 0.73 0.36 0.07 0.27", "mean log10 Kd (nM)": "0.36", "control signals": "0/18"}
{"CDR-L1": "GFSDSITEQIADANSIA", "CDR-L2": "DRDARDV", "CDR-L3": "QQYSRLPLI", "log10 Kd, replicates": "1.56 1.22 1.23 1.08 0.86 1.47", "mean log10 Kd (nM)": "1.24", "control signals": "0/18"}
{"CDR-L1": "TLMHHQDYGGEEKKSIA", "CDR-L2": "NAIIKEE", "CDR-L3": "QQYSRLPLA", "log10 Kd, replicates": "2.58 1.33 1.86 1.43 1.29 1.36", "mean log10 Kd (nM)": "1.64", "control signals": "0/18"}
{"CDR-L1": "QLDWYNSTATAAANSVA", "CDR-L2": "DVAQRMN", "CDR-L3": "QQYMRLPLM", "log10 Kd, replicates": "0.60 0.14 0.47 -0.20 0.30 0.65", "mean log10 Kd (nM)": "0.33", "control signals": "0/18"}
{"CDR-L1": "RIQMGDLEGRTAWNNIA", "CDR-L2": "NGEEIYR", "CDR-L3": "QQYVRLPLY", "log10 Kd, replicates": "1.88 1.51 1.40 0.73 1.34 nd", "mean log10 Kd (nM)": "1.37", "control signals": "1/18 (1.24)"}
{"CDR-L1": "NITGMVESKGTTTKNIA", "CDR-L2": "EAEFRCG", "CDR-L3": "QQYSRLPLS", "log10 Kd, replicates": "0.82 0.80 1.06 0.68 0.83 0.98", "mean log10 Kd (nM)": "0.86", "control signals": "3/18 (1.95)"}
{"CDR-L1": "QLAVNRLMEYTMGDAIA", "CDR-L2": "GKTLRVD", "CDR-L3": "QQYARLPLS", "log10 Kd, replicates": "0.23 0.60 0.25 -0.05 0.43 0.25", "mean log10 Kd (nM)": "0.28", "control signals": "1/18 (3.58)"}
{"CDR-L1": "NVNVSEDQWPSSKNAIA", "CDR-L2": "QTTCRNL", "CDR-L3": "QQYASLPLS", "log10 Kd, replicates": "1.37 1.04 1.18 1.22 1.28 1.48", "mean log10 Kd (nM)": "1.26", "control signals": "0/18"}
{"CDR-L1": "RIWANCYDEEASNNSVA", "CDR-L2": "NDRLAVQ", "CDR-L3": "QQYDRLPLS", "log10 Kd, replicates": "nd nd nd nd nd nd", "mean log10 Kd (nM)": "nd", "control signals": "0/18"}
{"CDR-L1": "NIVEDNAGDQKNSSNIA", "CDR-L2": "SVDQRED", "CDR-L3": "QQYQKLPLM", "log10 Kd, replicates": "0.98 1.05 0.90 1.14 0.73 1.85", "mean log10 Kd (nM)": "1.11", "control signals": "3/18 (2.79)"}
{"CDR-L1": "SLMHLSFVHPYEWNNVA", "CDR-L2": "DASVKAS", "CDR-L3": "QQYFRLPLV", "log10 Kd, replicates": "nd 1.74 nd 1.60 1.41 1.79", "mean log10 Kd (nM)": "1.64", "control signals": "0/18"}
{"CDR-L1": "KLKTMPGEIPKEGNSVA", "CDR-L2": "HAEARTP", "CDR-L3": "QQYHRLPLI", "log10 Kd, replicates": "1.08 1.16 0.73 0.67 0.43 0.64", "mean log10 Kd (nM)": "0.79", "control signals": "1/18 (1.74)"}
{"CDR-L1": "TLWDSIQGGDWAKKNVA", "CDR-L2": "DEQTRMV", "CDR-L3": "QQYYRLPLS", "log10 Kd, replicates": "0.25 0.09 -0.21 -0.32 -0.18 0.16", "mean log10 Kd (nM)": "-0.04", "control signals": "0/18"}
{"CDR-L1": "KLGMWMYWPTEAKYAIA", "CDR-L2": "QDEMRVH", "CDR-L3": "QQYDRLPLI", "log10 Kd, replicates": "nd nd nd nd nd nd", "mean log10 Kd (nM)": "nd", "control signals": "0/18"}
{"CDR-L1": "KVAQGIYEPKRHSHNIA", "CDR-L2": "EASHVCD", "CDR-L3": "QQYARLPLE", "log10 Kd, replicates": "0.98 0.76 0.62 0.57 0.44 0.60", "mean log10 Kd (nM)": "0.66", "control signals": "1/18 (1.83)"}
{"CDR-L1": "FIMHFGEESNRNSKNIA", "CDR-L2": "SKDTRCD", "CDR-L3": "QQYDRLPLS", "log10 Kd, replicates": "0.66 0.43 0.64 0.31 0.67 0.50", "mean log10 Kd (nM)": "0.53", "control signals": "2/18 (2.30)"}
{"CDR-L1": "QLEWYNSTATEAKNSVA", "CDR-L2": "GVEHRMN", "CDR-L3": "QQYMRLPLF", "log10 Kd, replicates": "0.51 0.52 0.26 0.23 0.17 0.35", "mean log10 Kd (nM)": "0.34", "control signals": "2/18 (3.19)"}
{"CDR-L1": "EIQWQQYGENAMEAAIA", "CDR-L2": "NEGTRHQ", "CDR-L3": "QQYSRLPLT", "log10 Kd, replicates": "0.54 0.74 1.13 0.36 0.81 1.28", "mean log10 Kd (nM)": "0.81", "control signals": "0/18"}

3 of these entries, quoted again:

{"CDR-L1": "KIELDLTRYNAGYAAIA", "CDR-L2": "HETMKAQ", "CDR-L3": "QQYSRLPLI", "log10 Kd, replicates": "1.13 1.15 1.16 1.11 1.25 1.17", "mean log10 Kd (nM)": "1.16", "control signals": "1/18 (2.44)"}
{"CDR-L1": "KLYSAKQGDIAQMQNVA", "CDR-L2": "AADVLTQ", "CDR-L3": "QQYNKLPLS", "log10 Kd, replicates": "0.48 0.57 0.39 0.37 0.22 0.57", "mean log10 Kd (nM)": "0.43", "control signals": "3/18 (2.90)"}
{"CDR-L1": "KLGMWMYWPTEAKYAIA", "CDR-L2": "QDEMRVH", "CDR-L3": "QQYDRLPLI", "log10 Kd, replicates": "nd nd nd nd nd nd", "mean log10 Kd (nM)": "nd", "control signals": "0/18"}